Assay results: publication PMC12501026

B1: Flag-Histone H1.5 [human] / IκBα [human (endogenous in DB)] (parent)
chain 1: MSETAPAETATPAPVEKSPAKKKATKKAAGAGAAKRKATGPPVSELITKAVAASKERNGLSLAALKKALAAGGYDVEKNNSRIKLGLKSLVSKGTLVQTKGTGASGSFKLNKKAASGEAKPKAKKAGAAKAKKPAGATPKKAKKAAGAKKAVKKTPKKAKKPAAAGVKKVAKSPKKAKAAAKPKKATKSPAKPKAVKPKAAKPKAAKPKAAKPKAAKAKKAAAKKK
chain 2: MFQAAERPQEWAMEGPRDGLKKERLLDDRHDSGLDSMKDEEYEQMVKELQEIRLEPQEVPRGSEPWKQQLTEDGDSFLHLAIIHEEKALTMEVIRQVKGDLAFLNFQNNLQQTPLHLAVITNQPEIAEALLGAGCDPELRDFRGNTPLHLACEQGCLASVGVLTQSCTTPHLHSILKATNYNGHTCLHLASIHGYLGIVELLVSLGADVNAQEPCNGRTALHLAVDLQNPDLVSLLLKCGADVNRVTYQGYSPYQLTWGRPSTRIQQQLGQLTLENLQMLPESEDEESYDTESEFTEFTEDELPYDDCVFGGQRLTL

Variants of: B1
Assay: co-immunoprecipitation (Flag IP, western blot band quantification)
Conditions: with IκBα [human (endogenous in DB)]; Chidamide (800nM); parent: 1.1; read off a plot

Row | Variant | response
1 | chain 1 K49R | 1
2 | chain 1 K37R | 1.1

Second part, the variant after the results:

Row | response | Variant
3 | 0.37 | chain 1 K93R
4 | 0.44 | chain 1 K67R
5 | 0.98 | chain 1 K88R
